# Measurements reported in patent US11905244B2, “Chemical modulators of store-operated calcium channels and their therapeutic applications” (The Texas A&M University System, priority 2017, dated 2024).
# Molecular target: CRAC channel (Homo sapiens (Human), UniProt Q96D31)
# Assay: GFP-NFAT translocation-based high-content screening (TG-stimulated HeLa cells stably expressing GFP-NFAT)
# Format: cell-based
# Settings: IC50 Value, Table 1, hits from virtual screening; unit inferred
# Excerpt: It is known that thapsigargin (TG) can induce the CRAC channel to open resulting in the calcium influx. The elevation of calcium in cytoplasm can activate the Ca^2+-calcineurin-NFAT pathway followed by NFAT translocation from the cytoplasm to the nucleus to regulate gene transcription. Therefore, the inventors built a GFP-NFAT translocation-based high-content screening method to evaluate the activity of compounds on CRAC channel. Briefly, a HeLa cell line stably expressing GFP-NFAT was established and used, and the images after chemical stimulation in the presence of TG were acquired using an IN Cell Analyzer 6000 confocal laser imaging system, and then the GFP fluorescent intensity ratio between cytoplasm and nucleus was analyzed to reflect the inhibitory activity of compound on CRAC channel.
# Briefly, GFP-NFAT stable cells were cultured in Dulbecco's modified eagle's medium (DMEM) supplemented with 10% FBS in 5% carbon dioxide at 37° C. […] Using Pipeline Plot software (NAFT translocation protocol), the intensity of green fluorescence was analyzed in nucleus and cytosol, calculate the ratio of nucleus:cytosol, normalize TG stimulate NFAT translocation as 1 and no TG adding as 0. Finally, the data was analyzed using GraphPad Prism 5 software.
smiles,measurement,value
Cc1ccc(Cl)cc1-c1ccc(/C=C2\SC(=S)N(CC(=O)CO)C2=O)o1 [Compound 16],IC50,> 200 µM
